Reference: patent US20210309702A1

Target: VSV-G fused with GFP11 at its C terminus (VSV-G-GFP11) (Vesicular Stomatitis Virus (Indiana strain)) (UniProt P03522)
Assay: cell-based or functional assay

“Cre recombinase fused with GFP1-10 (Cre-GFP1-10) (from UniProt P06956 1-343)” showed a fold increase in efficiency of Cre delivery, tethered against untethered of 26 fold.
